Source: patent US20240101670A1 (Eli Lilly, published 2024)

Biological target: T1, soluble, extracellular domain (ECD) of LAIR1 (human, UniProt Q6GTX8 22-163)
T1 construct: Produced recombinantly; also called LAIR1-ECD; LAIR1 ECD protein
T1 chain: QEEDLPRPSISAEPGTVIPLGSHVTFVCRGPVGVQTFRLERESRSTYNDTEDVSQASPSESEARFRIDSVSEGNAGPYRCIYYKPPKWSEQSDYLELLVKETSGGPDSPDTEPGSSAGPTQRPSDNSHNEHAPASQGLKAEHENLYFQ
Test: HDX-MS of the complex
Procedure: Hydrogen deuterium exchange coupled with mass spectrometry (HDX-MS) was performed to determine where parental mAb4 binds the ECD of LAIR1.
Peptide identification for LAIR1 ECD was performed on a Waters Synapt G2Si (Waters Corporation) instrument using 3.5 μg of LAIR1 ECD protein at zero exchange (1:10 dilution in 0.1× phosphate buffered saline in H₂O) using nepenthesin II (Nep II) for digestion. The mass spectrometer was set in HDMSe (Mobility ESI+ mode) using a mass acquisition range of m/z 255.00-1950.00 with a scan time of 0.4 s. Data was processed using PLGS 2.3.03 (Waters Corporation). For the exchange experiments, the complex of LAIR1 ECD protein with mAb4 was prepared at the molar ratio of 1:1.2 in 10 mM sodium phosphate buffer, pH 7.4 containing 150 mM NaCl (1×PBS buffer). The experiment was initiated by adding 25 μL of D20 buffer containing 0.1×PBS to 2.5 μl of LAIR1 ECD (0.7 mg/mL) or LAIR1 ECD+mAb4 complex at 15° C. for various amounts of time (0s, 10s, 2 min, 10 min and 60 min) using a custom TECAN sample preparation system (Espada et al. 2019). The reaction was quenched using equal volume of was 0.32M TCEP, 0.1M phosphate pH 2.5 for two minutes at 4° C. and immediately frozen at −70° C. […]

B1: Ab0 (Parental Ab4) (antibody, human IgG1, kappa, V domains shown)
VH: QVQLQESGPGLVKPSETLSLTCTVSGGSISNNYWSWIRQSAGKGLEWIGRMYSSGSTNKNPSLKSRVTMSVDTSKNQFSLKLTSVTAADTAVYYCARGPNWGSPYYGVDVWGQGTTVTVSS
VL: DVVMTQSPLSLPVTPGEPASISCRSSQSLLHSDGYNYLDWYLQKPGQSPQVLIYLGSNRASGVPDRFSGSGSGTDFTLKISRVEAEDVGVYYCMQALQTPFTFGPGTKVEIKR
B1: binds.
